Test results taken from US9492408B2, “Protection from chemical-induced acute lung injury” (dated 2016).

Columns and labels:
mice exposed to phosgene = test: Phosgene-induced acute lung injury, survival in mice
mice exposed to chlorine = test: Chlorine-induced acute lung injury, survival in mice

Molecule | survival (in words) (mice exposed to phosgene; 30 ppm phosgene, 5 mg/kg i.p. 30 min post exposure (FIG. 4)) | efficacy compared with bpV(Phen) (mice exposed to phosgene; in these studies) | survival (mice exposed to phosgene; mice, 30 ppm phosgene for 1 hour, 5 mg/kg i.p. (FIG. 4)) | survival (in words) (mice exposed to chlorine; 300 ppm chlorine 45 min, 5 mg/kg i.p. 30 min post exposure (FIG. 2)) | net improvement in survival (mice exposed to chlorine; SF1670 5 mg/kg i.p. vs saline treatment, 300 ppm chlorine 45 min) | survival (mice exposed to chlorine; mice, 300 ppm chlorine for 45 min, SF1670 5 mg/kg i.p. 30 min post exposure, saline 37.5%) | survival curves vs saline injected control (mice exposed to phosgene; 30 ppm phosgene 1 hour, 0.7 μmol 30 min post exposure) | benefit in phosgene (in words) (mice exposed to phosgene; overall judgement) | reduction of mortality (mice exposed to phosgene; phosgene, 0.3 μmol, milestone target >20% (FIG. 3)) | effective dose range (mice exposed to phosgene; very narrow effective dose range) | survival curves vs saline injected control (mice exposed to chlorine; 300 ppm chlorine 45 min, 0.7 μmol i.p. 30 minutes post exposure) | benefit in chlorine (in words) (mice exposed to chlorine; overall judgement)
CC(C)(C)C(=O)Nc1ccc2c(c1)C(=O)C(=O)c1ccccc1-2 | enhances survival | more effective than bpV(Phen) | 20% | enhances survival | 45.5% | 83% |  |  |  |  |  | 
Potassium bisperoxo(1,10-phenan-throline)oxovanadate |  |  |  |  |  |  | not different from saline injected control | only somewhat beneficial | ≤ 20% | less than 1 log | not different from saline injected control | only somewhat beneficial
